Measured values reported in ChEMBL document CHEMBL1130384, “Address and message sequences for the nociceptin receptor: a structure-activity study of nociceptin-(1-13)-peptide amide” (J Med Chem, 1997).

Experiments:
Mus musculus [1] = organism: Mus musculus; test: Tested for apparent affinity on electrically stimulated mouse vas deferens; assay type: functional, organism-based
Mus musculus [2] = organism: Mus musculus; test: Tested for maximal effect induced by agonist; assay type: functional

CC(C)C[C@H](NC(=O)[C@H](CCCCN)NC(=O)[C@H](CCCNC(=N)N)NC(=O)[C@H](C)NC(=O)[C@H](CO)NC(=O)[C@H](CCCCN)NC(=O)[C@H](CCCNC(=N)N)NC(=O)[C@H](C)NC(=O)CNC(=O)[C@@H](NC(=O)[C@H](Cc1ccccc1)NC(=O)CNC(=O)CNC(=O)[C@@H](N)Cc1ccccc1)[C@@H](C)O)C(=O)N[C@@H](C)C(=O)N[C@@H](CC(N)=O)C(=O)N[C@@H](CCC(N)=O)C(N)=O [NOCICEPTIN-NH2]
EC50 (Mus musculus [1]): 18.2 nM
Emax (Mus musculus [2]): -79%
